This passage reports IC50, Ki and % inhibition results from paper PMC4580473.

Amino acid sequences for entries named in this document (tags omitted). Residues count along the entry.
UniProt O60285, whole entry: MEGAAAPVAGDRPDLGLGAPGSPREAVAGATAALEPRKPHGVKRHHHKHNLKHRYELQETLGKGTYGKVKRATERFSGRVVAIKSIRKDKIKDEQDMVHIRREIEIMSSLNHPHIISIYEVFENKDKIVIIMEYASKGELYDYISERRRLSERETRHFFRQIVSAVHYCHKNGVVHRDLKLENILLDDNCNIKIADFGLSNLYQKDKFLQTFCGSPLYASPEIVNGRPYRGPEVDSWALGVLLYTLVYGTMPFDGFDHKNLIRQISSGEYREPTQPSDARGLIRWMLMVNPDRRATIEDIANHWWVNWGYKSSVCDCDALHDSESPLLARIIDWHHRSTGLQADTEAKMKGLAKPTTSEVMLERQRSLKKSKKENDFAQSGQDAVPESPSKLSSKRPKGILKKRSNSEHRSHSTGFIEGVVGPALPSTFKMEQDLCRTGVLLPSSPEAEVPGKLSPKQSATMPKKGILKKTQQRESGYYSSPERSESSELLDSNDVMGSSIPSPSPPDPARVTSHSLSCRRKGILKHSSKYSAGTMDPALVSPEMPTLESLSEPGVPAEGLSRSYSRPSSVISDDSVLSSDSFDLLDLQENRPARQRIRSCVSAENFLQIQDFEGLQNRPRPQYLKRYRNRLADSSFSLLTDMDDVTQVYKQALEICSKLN
UniProt P45984, whole entry: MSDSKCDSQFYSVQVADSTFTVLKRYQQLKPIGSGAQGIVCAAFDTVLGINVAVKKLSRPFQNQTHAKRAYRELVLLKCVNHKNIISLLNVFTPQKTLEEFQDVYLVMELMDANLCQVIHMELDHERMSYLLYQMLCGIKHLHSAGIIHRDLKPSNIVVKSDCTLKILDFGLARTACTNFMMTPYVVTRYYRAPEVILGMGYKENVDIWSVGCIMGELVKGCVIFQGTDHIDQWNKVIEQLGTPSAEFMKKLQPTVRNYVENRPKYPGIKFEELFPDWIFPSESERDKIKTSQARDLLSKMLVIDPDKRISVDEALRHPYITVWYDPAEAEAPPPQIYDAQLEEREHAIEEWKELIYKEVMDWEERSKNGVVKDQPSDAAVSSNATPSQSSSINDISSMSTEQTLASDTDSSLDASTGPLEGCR
UniProt O43318, whole entry: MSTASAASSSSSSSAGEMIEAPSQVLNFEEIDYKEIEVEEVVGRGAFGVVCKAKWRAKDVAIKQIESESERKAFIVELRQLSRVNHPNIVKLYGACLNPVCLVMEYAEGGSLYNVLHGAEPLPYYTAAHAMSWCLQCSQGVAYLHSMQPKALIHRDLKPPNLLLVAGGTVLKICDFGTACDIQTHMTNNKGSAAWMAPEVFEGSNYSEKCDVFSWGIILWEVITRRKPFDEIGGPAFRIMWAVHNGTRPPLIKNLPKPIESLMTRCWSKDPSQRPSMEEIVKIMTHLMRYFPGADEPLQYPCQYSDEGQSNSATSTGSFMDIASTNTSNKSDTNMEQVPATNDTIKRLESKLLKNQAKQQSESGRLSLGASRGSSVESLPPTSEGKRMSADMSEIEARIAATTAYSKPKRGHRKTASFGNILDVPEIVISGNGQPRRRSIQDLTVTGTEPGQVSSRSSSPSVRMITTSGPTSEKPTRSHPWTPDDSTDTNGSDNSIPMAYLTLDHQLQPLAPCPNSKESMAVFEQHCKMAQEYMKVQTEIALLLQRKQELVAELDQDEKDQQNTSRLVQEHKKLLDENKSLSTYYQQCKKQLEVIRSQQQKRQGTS
UniProt P33981, 510-857 limits assumed: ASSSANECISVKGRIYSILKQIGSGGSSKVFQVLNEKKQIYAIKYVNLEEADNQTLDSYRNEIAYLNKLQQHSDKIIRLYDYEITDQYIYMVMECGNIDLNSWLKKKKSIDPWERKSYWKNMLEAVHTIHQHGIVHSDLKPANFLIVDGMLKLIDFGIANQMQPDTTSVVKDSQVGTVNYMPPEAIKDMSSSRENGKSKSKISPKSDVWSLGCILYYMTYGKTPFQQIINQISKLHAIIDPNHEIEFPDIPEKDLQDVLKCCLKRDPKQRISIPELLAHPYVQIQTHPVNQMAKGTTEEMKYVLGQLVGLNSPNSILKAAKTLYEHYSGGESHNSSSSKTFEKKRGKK
UniProt Q8TD08, whole entry: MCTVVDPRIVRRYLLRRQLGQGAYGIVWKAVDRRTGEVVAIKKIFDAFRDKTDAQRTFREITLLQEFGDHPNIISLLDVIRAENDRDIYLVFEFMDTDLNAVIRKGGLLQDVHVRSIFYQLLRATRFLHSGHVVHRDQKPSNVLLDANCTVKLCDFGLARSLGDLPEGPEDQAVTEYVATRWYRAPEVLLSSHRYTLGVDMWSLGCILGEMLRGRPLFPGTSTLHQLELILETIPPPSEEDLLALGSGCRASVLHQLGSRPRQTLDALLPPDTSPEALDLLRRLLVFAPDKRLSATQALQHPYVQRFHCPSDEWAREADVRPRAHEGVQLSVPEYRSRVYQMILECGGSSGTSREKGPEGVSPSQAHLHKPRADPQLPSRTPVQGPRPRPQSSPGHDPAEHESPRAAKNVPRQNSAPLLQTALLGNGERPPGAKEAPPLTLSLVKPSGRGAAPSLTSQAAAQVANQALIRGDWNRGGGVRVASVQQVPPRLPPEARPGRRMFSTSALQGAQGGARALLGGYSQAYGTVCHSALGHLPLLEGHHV

The target in one assay is JNK1 (Homo sapiens, UniProt P45983). The assay can be described thus: kinase panel at […], then 10-point Caliper mobility-shift dose-response.
Another assay concerns the target NUAK1 (Homo sapiens, UniProt O60285). The assay is described as above.
In a further assay the target is JNK2 (Homo sapiens, UniProt P45984). Described as above.
The next assay deals with TAK1 (Homo sapiens, UniProt O43318). Described as above.
In the next assay the target is Mps1 (Homo sapiens, UniProt P33981). The assay can be described thus: mobility shift kinase assay (Caliper LabChip3000), Morrison tight-binding fit.
A further assay addresses ERK7 (Homo sapiens, UniProt Q8TD08). The assay can be described thus: kinase panel, single concentration (% inhibition at […], Km ATP).

Take `Cc1nc(N2CCOCC2)ccc1Nc1nc(NC(C)(C)CO)c2c(C#N)c[nH]c2n1`: the concentration for half-maximal inhibition (IC50) at JNK1 was 42 nM; on NUAK1, 52 nM; on JNK2 it was 28 nM; on TAK1, 290 nM. For the same molecule, the inhibitory constant (Ki) at Mps1 worked out at 0.33 nM.

`Cc1nc(N2CCOCC2)ccc1Nc1nc(NC2CCOCC2)c2c(C#N)c[nH]c2n1`: the IC50 came to 220 nM at JNK1, 160 nM at NUAK1 and 89 nM on JNK2. Also, at Mps1, the Ki amounted to 0.27 nM. The same molecule returned a % inhibition at 1000 nM on ERK7 of 81%.
